Assay results: patent US7560479B2 (priority 2003, dated 2009)

Amino acid sequences for entries named in this document (tags omitted).
UniProt P10980, whole entry, looked up: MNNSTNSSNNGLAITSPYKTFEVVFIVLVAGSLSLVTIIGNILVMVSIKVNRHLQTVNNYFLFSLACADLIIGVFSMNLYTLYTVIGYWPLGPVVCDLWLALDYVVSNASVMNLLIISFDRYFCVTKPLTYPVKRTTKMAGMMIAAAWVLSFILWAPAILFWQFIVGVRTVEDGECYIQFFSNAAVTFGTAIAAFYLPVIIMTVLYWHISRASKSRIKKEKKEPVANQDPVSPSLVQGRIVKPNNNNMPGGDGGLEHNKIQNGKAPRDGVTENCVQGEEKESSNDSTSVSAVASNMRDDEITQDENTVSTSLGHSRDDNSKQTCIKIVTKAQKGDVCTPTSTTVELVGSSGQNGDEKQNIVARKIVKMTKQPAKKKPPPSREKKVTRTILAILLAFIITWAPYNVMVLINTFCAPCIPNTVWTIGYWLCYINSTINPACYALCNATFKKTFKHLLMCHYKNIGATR
UniProt P08483, whole entry, looked up: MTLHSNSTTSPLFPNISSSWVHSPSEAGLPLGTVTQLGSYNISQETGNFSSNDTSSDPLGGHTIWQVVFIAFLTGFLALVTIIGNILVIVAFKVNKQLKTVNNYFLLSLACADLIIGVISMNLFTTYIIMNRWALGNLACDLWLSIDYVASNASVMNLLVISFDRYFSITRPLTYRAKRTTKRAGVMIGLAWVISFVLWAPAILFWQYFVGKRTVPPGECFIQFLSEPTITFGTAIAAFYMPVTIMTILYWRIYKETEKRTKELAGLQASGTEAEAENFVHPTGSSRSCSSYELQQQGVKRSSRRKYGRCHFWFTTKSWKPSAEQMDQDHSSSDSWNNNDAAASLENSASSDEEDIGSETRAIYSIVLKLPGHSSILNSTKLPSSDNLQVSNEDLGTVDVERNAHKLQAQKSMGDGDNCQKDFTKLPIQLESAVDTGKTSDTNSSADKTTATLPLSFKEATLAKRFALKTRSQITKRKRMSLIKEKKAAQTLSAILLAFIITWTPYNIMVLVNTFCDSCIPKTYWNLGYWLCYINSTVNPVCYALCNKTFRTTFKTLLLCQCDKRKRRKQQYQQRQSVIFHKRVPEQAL

Legend:
[1] = molecular target: M2 muscarinic receptor subtype (Rattus norvegicus, UniProt P10980); test: Radioligand binding assay, [3H]-N-methylscopolamine, rat heart membranes; conditions: [3H]NMS, Ki by Cheng & Prusoff
[2] = molecular target: M3 muscarinic receptor subtype (Rattus norvegicus, UniProt P08483); conditions: rat submandibular gland membranes, [3H]NMS, Ki by Cheng & Prusoff
[3] = tested on: isolated rat bladder; conditions: rat bladder strips, antagonism of carbachol contraction, compound added 20 min prior to second CRC

SMILES	Receptor Binding Assay M2 (pki) [1]	Receptor Binding Assay M3 (pki) [2]	Functional Assay pkB [3]
CC(C)=CCCN1CC2C(C1)C2NC(=O)C(O)(c1ccccc1)C1CCC(F)C1 (centres unmarked)	4.9	6	7.17
CC(C)=CCCN1C[C@@H]2[C@H](C1)[C@H]2NC(=O)[C@@](O)(c1ccccc1)C1CCCC(F)(F)C1 (single isomer, unassigned)	4.8	6.2	6.83
O=C(N[C@H]1[C@@H]2CN(Cc3ccccc3)C[C@@H]21)[C@](O)(c1ccccc1)C1CCC(F)(F)C1 (some centres unmarked)	5.35	6.86	
